## Permeability data for macrocyclic peptides

PAMPA measures passive passage through an artificial lipid membrane. Values are log10 P with P in cm/s, so -5 is more permeable than -7.

| structure (SMILES) | PAMPA (log10 cm/s) |
|---|---|
| CC(=O)N1CCC[C@@H]1C(=O)N(C)[C@@H](CC(C)C)C(=O)N[C@@H]1C(=O)N[C@@H](CC(C)C)C(=O)N[C@@H](CC(C)C)C(=O)N(C)[C@@H](CC(C)C)C(=O)N(C)[C@@H](C)C(=O)N[C@H](CC(C)C)C(=O)N2CCC[C@H]2C(=O)O[C@@H]1C | -6.54 |
| CC(=O)N1CCC[C@H]1C(=O)N[C@@H]1C(=O)N[C@H](CC(C)C)C(=O)N[C@H](CC(C)C)C(=O)N(C)[C@H](CC(C)C)C(=O)N[C@@H](CC(C)C)C(=O)N(C)[C@@H](C)C(=O)N[C@@H](CC(C)C)C(=O)N2CCC[C@@H]2C(=O)O[C@@H]1C | -5.42 |
| CC(=O)N1CCC[C@H]1C(=O)N(C)[C@H](CC(C)C)C(=O)N[C@@H]1C(=O)N[C@@H](CC(C)C)C(=O)N(C)[C@@H](CC(C)C)C(=O)N(C)[C@H](CC(C)C)C(=O)N[C@@H](C)C(=O)N[C@@H](CC(C)C)C(=O)N2CCC[C@H]2C(=O)O[C@@H]1C | -6.63 |
| CC(=O)N1CCC[C@H]1C(=O)N(C)[C@@H](CC(C)C)C(=O)N[C@@H]1C(=O)N(C)[C@H](CC(C)C)C(=O)N(C)[C@@H](CC(C)C)C(=O)N[C@H](CC(C)C)C(=O)N[C@@H](C)C(=O)N[C@H](CC(C)C)C(=O)N2CCC[C@H]2C(=O)O[C@@H]1C | -5.33 |
| CC(=O)N[C@@H]1C(=O)N2CCC[C@H]2C(=O)N(C)[C@H](CC(C)C)C(=O)N[C@H](CC(C)C)C(=O)N[C@H](CC(C)C)C(=O)N[C@H](CC(C)C)C(=O)N[C@H](C)C(=O)N[C@@H](CC(C)C)C(=O)N2CCC[C@@H]2C(=O)O[C@@H]1C | -7.47 |
| CC(=O)N1CCC[C@@H]1C(=O)N(C)[C@@H](CC(C)C)C(=O)N[C@@H]1C(=O)N(C)[C@@H](CC(C)C)C(=O)N(C)[C@@H](CC(C)C)C(=O)N(C)[C@H](CC(C)C)C(=O)N(C)[C@@H](C)C(=O)N[C@H](CC(C)C)C(=O)N2CCC[C@H]2C(=O)O[C@@H]1C | -6.31 |
| CC(=O)N1CCC[C@@H]1C(=O)N(C)[C@H](CC(C)C)C(=O)N[C@@H]1C(=O)N[C@@H](CC(C)C)C(=O)N[C@@H](CC(C)C)C(=O)N[C@@H](CC(C)C)C(=O)N(C)[C@H](C)C(=O)N[C@H](CC(C)C)C(=O)N2CCC[C@H]2C(=O)O[C@@H]1C | -6.28 |
| CC(=O)N1CCC[C@@H]1C(=O)N(C)[C@@H](CC(C)C)C(=O)N[C@@H]1C(=O)N[C@H](CC(C)C)C(=O)N[C@@H](CC(C)C)C(=O)N(C)[C@H](CC(C)C)C(=O)N(C)[C@@H](C)C(=O)N[C@@H](CC(C)C)C(=O)N2CCC[C@@H]2C(=O)O[C@@H]1C | -5.28 |
| CC(=O)N1CCC[C@@H]1C(=O)N(C)[C@@H](CC(C)C)C(=O)N[C@@H]1C(=O)N[C@@H](CC(C)C)C(=O)N[C@H](CC(C)C)C(=O)N(C)[C@@H](CC(C)C)C(=O)N(C)[C@@H](C)C(=O)N[C@H](CC(C)C)C(=O)N2CCC[C@@H]2C(=O)O[C@@H]1C | -5.95 |
| CC(=O)N1CCC[C@H]1C(=O)N[C@@H]1C(=O)N[C@H](CC(C)C)C(=O)N[C@H](CC(C)C)C(=O)N(C)[C@@H](CC(C)C)C(=O)N[C@@H](CC(C)C)C(=O)N(C)[C@@H](C)C(=O)N[C@@H](CC(C)C)C(=O)N2CCC[C@@H]2C(=O)O[C@@H]1C | -5.19 |
| CC(=O)N1CCC[C@@H]1C(=O)N(C)[C@H](CC(C)C)C(=O)N[C@@H]1C(=O)N(C)[C@H](CC(C)C)C(=O)N[C@H](CC(C)C)C(=O)N(C)[C@@H](CC(C)C)C(=O)N(C)[C@@H](C)C(=O)N[C@@H](CC(C)C)C(=O)N2CCC[C@H]2C(=O)O[C@@H]1C | -5.58 |
| CC(=O)N1CCC[C@H]1C(=O)N(C)[C@H](CC(C)C)C(=O)N[C@@H]1C(=O)N(C)[C@H](CC(C)C)C(=O)N(C)[C@H](CC(C)C)C(=O)N[C@H](CC(C)C)C(=O)N(C)[C@H](C)C(=O)N[C@@H](CC(C)C)C(=O)N2CCC[C@H]2C(=O)O[C@@H]1C | -4.99 |
| CC(=O)N1CCC[C@H]1C(=O)N[C@@H]1C(=O)N[C@H](CC(C)C)C(=O)N[C@H](CC(C)C)C(=O)N(C)[C@@H](CC(C)C)C(=O)N(C)[C@H](CC(C)C)C(=O)N(C)[C@H](C)C(=O)N[C@@H](CC(C)C)C(=O)N2CCC[C@@H]2C(=O)O[C@@H]1C | -5.61 |
| CC(=O)N1CCC[C@H]1C(=O)N(C)[C@@H](CC(C)C)C(=O)N[C@@H]1C(=O)N(C)[C@H](CC(C)C)C(=O)N[C@@H](CC(C)C)C(=O)N(C)[C@@H](CC(C)C)C(=O)N(C)[C@@H](C)C(=O)N[C@H](CC(C)C)C(=O)N2CCC[C@H]2C(=O)O[C@@H]1C | -6.18 |
| CC(=O)N1CCC[C@H]1C(=O)N(C)[C@H](CC(C)C)C(=O)N[C@@H]1C(=O)N(C)[C@H](CC(C)C)C(=O)N(C)[C@@H](CC(C)C)C(=O)N(C)[C@H](CC(C)C)C(=O)N(C)[C@H](C)C(=O)N[C@@H](CC(C)C)C(=O)N2CCC[C@H]2C(=O)O[C@@H]1C | -5.47 |
| CC(=O)N1CCC[C@@H]1C(=O)N(C)[C@@H](CC(C)C)C(=O)N[C@@H]1C(=O)N(C)[C@@H](CC(C)C)C(=O)N[C@@H](CC(C)C)C(=O)N[C@@H](CC(C)C)C(=O)N[C@@H](C)C(=O)N[C@@H](CC(C)C)C(=O)N2CCC[C@@H]2C(=O)O[C@@H]1C | -7.29 |
| CC(=O)N1CCC[C@H]1C(=O)N[C@@H]1C(=O)N[C@H](CC(C)C)C(=O)N[C@H](CC(C)C)C(=O)N(C)[C@H](CC(C)C)C(=O)N[C@H](CC(C)C)C(=O)N[C@H](C)C(=O)N[C@@H](CC(C)C)C(=O)N2CCC[C@@H]2C(=O)O[C@@H]1C | -6.21 |
| CC(=O)N1CCC[C@H]1C(=O)N(C)[C@@H](CC(C)C)C(=O)N[C@@H]1C(=O)N[C@H](CC(C)C)C(=O)N(C)[C@@H](CC(C)C)C(=O)N(C)[C@H](CC(C)C)C(=O)N[C@H](C)C(=O)N[C@@H](CC(C)C)C(=O)N2CCC[C@H]2C(=O)O[C@@H]1C | -5.85 |
| CC(=O)N1CCC[C@H]1C(=O)N(C)[C@@H](CC(C)C)C(=O)N[C@@H]1C(=O)N[C@H](CC(C)C)C(=O)N[C@H](CC(C)C)C(=O)N[C@H](CC(C)C)C(=O)N[C@@H](C)C(=O)N[C@@H](CC(C)C)C(=O)N2CCC[C@H]2C(=O)O[C@@H]1C | -6.77 |
| CC(=O)N1CCC[C@@H]1C(=O)N(C)[C@@H](CC(C)C)C(=O)N[C@@H]1C(=O)N[C@@H](CC(C)C)C(=O)N(C)[C@H](CC(C)C)C(=O)N[C@H](CC(C)C)C(=O)N[C@@H](C)C(=O)N[C@@H](CC(C)C)C(=O)N2CCC[C@H]2C(=O)O[C@@H]1C | -6.49 |

Extract of 2 entries:

| structure (SMILES) | PAMPA (log10 cm/s) |
|---|---|
| CC(=O)N1CCC[C@@H]1C(=O)N(C)[C@@H](CC(C)C)C(=O)N[C@@H]1C(=O)N[C@@H](CC(C)C)C(=O)N(C)[C@H](CC(C)C)C(=O)N[C@H](CC(C)C)C(=O)N[C@@H](C)C(=O)N[C@@H](CC(C)C)C(=O)N2CCC[C@H]2C(=O)O[C@@H]1C | -6.49 |
| CC(=O)N1CCC[C@H]1C(=O)N[C@@H]1C(=O)N[C@H](CC(C)C)C(=O)N[C@H](CC(C)C)C(=O)N(C)[C@@H](CC(C)C)C(=O)N(C)[C@H](CC(C)C)C(=O)N(C)[C@H](C)C(=O)N[C@@H](CC(C)C)C(=O)N2CCC[C@@H]2C(=O)O[C@@H]1C | -5.61 |

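The data file gives no further conditions (lipid, pH, time, direction or concentration), and values from different papers need not be comparable. Other peptides of the study may be missing here. Peptides that the database sets to -10, its floor, are left out.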

Values of Kelly et al. 2021, doi:10.1021/jacs.0c06115, as listed in CycPeptMPDB.